System: SNU449T7 cells
Experiment: SNU449T7 liver cancer xenograft, Ab27-hz9 versus Ab27 and cetuximab
Format: in vivo
Conditions: 300 μg/mouse/dose i.p. 3 or 4 times per week, 12 times in total; normal human IgG control
Description: SNU449T7 (1×10^7) cells were subcutaneously injected into the flanks of mice. When volumes reached about 100 mm^3, the tumor-bearing mice were randomized into control and treatment groups (n=6 per group). […] Normal human IgG was injected as a negative control.
Body weight and tumor volume were measured before injection of the antibody or drug. Tumor volumes were calculated using the formula width^2×length/2). Tumor masses were lysed as described in the literature for immunoblot analysis (J Clin Invest, 2008. 118 (4): pp. 1354-66) or tumor masses were fixed in 10% formalin and embedded in paraffin.
Formalin-fixed and paraffin-embedded 6-μm-thick tissue sections from xenograft tumors were processed for immunohistochemistry analysis as per the standard protocol. Sections were stained with anti-Ki67 antibody (SP6; Abcam) using the peroxidase technique. The proliferative index (%) was determined by calculating the number of Ki67^+ cells relative to the total number of cells, which consisted of at least 1,000 cells per field. Five randomly selected fields from tumor sections per mouse were analyzed using ImageJ software.
The antitumor efficacy of Ab27-hz9 was evaluated in the SNU449T7 xenograft model. SNU449T7 cells (3×10^6) were subcutaneously injected into the flanks of mice.

cetuximab
inhibited tumor growth (tumor volume): 59%
